Experimental data from patent US12187684B2, “Benzimidazole derivatives as modulators of retinoid-related orphan receptor gamma (RORγ) and pharmaceutical use thereof” (Jiangsu Hengrui Medicine Co., Ltd., priority 2018, dated 2025).

By UniProt entry, the sequences of proteins in these tests, tags left out. Residues count along the entry.
UniProt P51449, 269-508 limits assumed: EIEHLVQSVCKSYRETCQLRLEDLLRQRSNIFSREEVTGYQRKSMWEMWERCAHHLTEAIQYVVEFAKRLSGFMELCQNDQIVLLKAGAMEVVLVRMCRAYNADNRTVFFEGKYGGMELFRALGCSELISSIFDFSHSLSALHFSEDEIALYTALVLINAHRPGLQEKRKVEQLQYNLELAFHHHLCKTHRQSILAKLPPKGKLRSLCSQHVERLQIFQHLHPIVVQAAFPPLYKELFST

Key:
RORγ LBD-GST tagged = RORγ LBD-GST tagged (Homo sapiens, UniProt P51449); assay: LanthaScreen TR-FRET RORγ coactivator assay; format: biochemical; settings: read-out: RORγ Coactivator Assay (IC50 μM), Fluorescein-D22 coactivator peptide, 1 hour room temperature
[1] = test system: IL-17 production, human PBMC cells; assay: IL-17 production assay using human PBMC; settings: read-out: IL-17 production (IC50 μM); human PBMC stimulated by cytostim for 3 days, IL-17 ELISA of supernatant
Text: Test Example 2. IL-17 Production Assay Using Human PBMC
• 1. Human PBMC cells (Cat No. 70025.1, Zenbio) • 2. Lymphocyte medium (Cat No. LYMPH-1, Zenbio) • 3. TexMACS (Cat No. 130-097-196, Miltenyi) • 4. Cytostim-human (Cat No. 1130-092-173, Miltenyi) • 5. Human IL-17 ELISA (Cat No. D1700, R&D systems) • 6. Tecan Infinite M1000 plate reader (Tecan)
Experimental Procedure for IL-17 Production Assay
Cryopreserved peripheral blood human mononuclear cells (PBMCs) were rapidly thawed in warmed Lymphocyte media, and centrifuged cell suspension at 1000 rpm for 10 minutes. The supernatant was removed, and the cell pellets were gently resuspended in TexMACS media.
Human PBMC cells in TexMACS media were plated at 1×10^5 each well in triplicate. The test compounds at various concentrations or vehicle control (<0.5% DMSO) were added into cell culture. The cells were stimulated by cytostim (10 μL/mL) for 3 days in a humidified, 5% CO2 incubator at 37° C.
After incubation, the cell culture supernatant was harvested, and then removed particulates by centrifugation. Human IL-17 in the supernatant was measured using human IL-17 ELISA kit according to the manufacturer's protocol. IC50 values were determined using GraphPad Prism by plotting the compounds concentration versus percent inhibition.

| IC50 (RORγ LBD-GST tagged) [µM] | Compound | IC50 [1] [µM] |
| --- | --- | --- |
| 0.026 | CC(C)Oc1ccccc1-c1cc2nc(C(CO)c3ccc(S(=O)(=O)CC4CC4)cc3)[nH]c2cc1Cl (single isomer, unassigned) [the longer retention time of 124-1 and 124-2] | 0.041 |
| 0.036 | CCS(=O)(=O)c1ccc(C(CO)c2nc3cc(Cl)c(N4CCC(F)(F)CC4)c(Cl)c3[nH]2)cc1 (single isomer, unassigned) [the longer retention time of 126-1 and 126-2] | 0.031 |
| 0.07 | CC(C)Oc1ccccc1-c1cc2nc(C(CO)c3ccc(S(=O)(=O)CC4CC4)cc3)[nH]c2cc1Cl (single isomer, unassigned) [the shorter retention time of 124-1 and 124-2] | 0.024 |
| 0.014 | CCS(=O)(=O)c1ccc(C(CO)c2nc3cc(Cl)c(N4CCC(F)(F)CC4)c(Cl)c3[nH]2)cc1 (single isomer, unassigned) [the shorter retention time of 126-1 and 126-2] | 0.045 |
